Measured values from publication PMC9749463 (European Journal of Pharmacology, 2021).

Protein sequences, listed by entry. Tags and fused reporters are not part of them. Lines headed by an entry give the natural chain unless they say otherwise; changes in a name come on top.
UniProt Q13936, whole entry: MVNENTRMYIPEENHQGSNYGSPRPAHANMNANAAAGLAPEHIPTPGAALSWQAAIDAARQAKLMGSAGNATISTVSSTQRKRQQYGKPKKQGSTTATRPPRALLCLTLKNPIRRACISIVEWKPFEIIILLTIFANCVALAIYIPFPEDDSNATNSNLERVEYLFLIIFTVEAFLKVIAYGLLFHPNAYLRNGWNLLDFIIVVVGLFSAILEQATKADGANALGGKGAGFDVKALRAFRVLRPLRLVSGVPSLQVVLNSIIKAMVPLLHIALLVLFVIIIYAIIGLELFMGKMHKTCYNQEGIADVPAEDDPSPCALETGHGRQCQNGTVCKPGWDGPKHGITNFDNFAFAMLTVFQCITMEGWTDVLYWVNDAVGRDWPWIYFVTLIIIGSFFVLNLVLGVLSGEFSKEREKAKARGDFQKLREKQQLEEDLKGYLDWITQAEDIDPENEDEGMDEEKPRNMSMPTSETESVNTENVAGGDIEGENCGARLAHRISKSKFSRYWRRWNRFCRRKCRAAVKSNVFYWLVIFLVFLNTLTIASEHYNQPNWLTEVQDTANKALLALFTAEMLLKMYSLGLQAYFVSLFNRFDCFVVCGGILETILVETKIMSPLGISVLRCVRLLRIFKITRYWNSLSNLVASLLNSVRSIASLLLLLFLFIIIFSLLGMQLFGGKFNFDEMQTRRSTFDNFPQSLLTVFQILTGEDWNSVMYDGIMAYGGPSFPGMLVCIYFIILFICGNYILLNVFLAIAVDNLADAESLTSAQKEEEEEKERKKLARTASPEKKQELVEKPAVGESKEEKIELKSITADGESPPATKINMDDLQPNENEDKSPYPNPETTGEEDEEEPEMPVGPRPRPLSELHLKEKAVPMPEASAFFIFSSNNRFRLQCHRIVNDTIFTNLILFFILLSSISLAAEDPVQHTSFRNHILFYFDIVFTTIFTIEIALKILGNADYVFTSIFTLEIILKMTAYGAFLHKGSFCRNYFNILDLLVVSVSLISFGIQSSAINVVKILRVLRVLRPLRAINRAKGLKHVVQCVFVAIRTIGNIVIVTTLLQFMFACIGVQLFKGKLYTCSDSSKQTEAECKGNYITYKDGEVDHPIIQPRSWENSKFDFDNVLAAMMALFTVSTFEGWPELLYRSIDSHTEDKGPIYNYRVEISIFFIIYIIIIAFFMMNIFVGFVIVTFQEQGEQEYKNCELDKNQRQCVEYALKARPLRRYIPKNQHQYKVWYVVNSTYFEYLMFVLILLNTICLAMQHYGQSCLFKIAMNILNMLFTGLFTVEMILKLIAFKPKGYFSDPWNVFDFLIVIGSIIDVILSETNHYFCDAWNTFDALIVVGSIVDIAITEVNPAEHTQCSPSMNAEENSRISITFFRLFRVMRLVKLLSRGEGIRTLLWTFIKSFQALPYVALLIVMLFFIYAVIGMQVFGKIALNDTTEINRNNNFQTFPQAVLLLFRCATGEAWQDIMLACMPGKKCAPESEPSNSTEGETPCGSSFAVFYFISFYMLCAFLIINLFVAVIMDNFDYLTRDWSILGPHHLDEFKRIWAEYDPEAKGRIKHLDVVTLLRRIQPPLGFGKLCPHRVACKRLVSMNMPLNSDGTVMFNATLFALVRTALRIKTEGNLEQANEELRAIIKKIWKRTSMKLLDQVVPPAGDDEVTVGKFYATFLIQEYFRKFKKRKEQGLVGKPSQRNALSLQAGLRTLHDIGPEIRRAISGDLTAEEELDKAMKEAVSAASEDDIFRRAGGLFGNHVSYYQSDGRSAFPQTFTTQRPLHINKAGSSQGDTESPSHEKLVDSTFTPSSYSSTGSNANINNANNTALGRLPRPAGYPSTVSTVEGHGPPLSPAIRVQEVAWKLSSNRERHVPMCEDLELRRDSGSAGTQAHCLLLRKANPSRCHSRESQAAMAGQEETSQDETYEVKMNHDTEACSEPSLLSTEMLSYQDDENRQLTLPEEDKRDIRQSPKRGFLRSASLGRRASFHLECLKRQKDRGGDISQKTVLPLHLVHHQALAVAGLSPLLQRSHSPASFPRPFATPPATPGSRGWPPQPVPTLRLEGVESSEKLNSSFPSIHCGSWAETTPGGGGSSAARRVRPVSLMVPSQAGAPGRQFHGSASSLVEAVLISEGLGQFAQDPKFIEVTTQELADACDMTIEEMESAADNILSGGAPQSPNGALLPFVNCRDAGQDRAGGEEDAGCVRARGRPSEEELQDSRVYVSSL

Target: CaV1.2/β2/α2δ1 (Homo sapiens, UniProt Q13936)
Test: automated patch-clamp
Assay type: cell-based

`CC(C)COCC(CN(Cc1ccccc1)c1ccccc1)N1CCCC1` (stereo not shown) [bepridil] was tested, and the IC50 was 5.2 µM.
